Measured values taken from paper PMC10631449 (Journal of medicinal chemistry, 2023).

Amino acid sequences for entries named in this document (tags omitted). A change or cut given only in a name is not applied to a line headed by its entry.
UniProt P56450, whole entry: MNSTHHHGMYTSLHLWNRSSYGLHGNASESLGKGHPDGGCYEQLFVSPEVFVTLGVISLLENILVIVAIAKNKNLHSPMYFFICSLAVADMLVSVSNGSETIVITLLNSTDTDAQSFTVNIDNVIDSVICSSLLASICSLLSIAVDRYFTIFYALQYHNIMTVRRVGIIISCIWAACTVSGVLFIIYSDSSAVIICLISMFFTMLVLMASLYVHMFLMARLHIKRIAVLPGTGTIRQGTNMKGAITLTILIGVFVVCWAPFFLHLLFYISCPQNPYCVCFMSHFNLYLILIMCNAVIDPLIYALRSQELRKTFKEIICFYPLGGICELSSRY
UniProt P33033: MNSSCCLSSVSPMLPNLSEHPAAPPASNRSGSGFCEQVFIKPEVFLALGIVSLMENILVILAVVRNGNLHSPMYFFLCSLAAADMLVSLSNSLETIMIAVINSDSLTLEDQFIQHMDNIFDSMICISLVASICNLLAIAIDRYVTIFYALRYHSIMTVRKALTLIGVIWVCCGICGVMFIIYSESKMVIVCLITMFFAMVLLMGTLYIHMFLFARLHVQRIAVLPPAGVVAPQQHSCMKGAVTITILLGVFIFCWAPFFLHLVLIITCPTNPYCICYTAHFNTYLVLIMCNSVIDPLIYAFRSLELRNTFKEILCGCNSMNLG
UniProt Q01727: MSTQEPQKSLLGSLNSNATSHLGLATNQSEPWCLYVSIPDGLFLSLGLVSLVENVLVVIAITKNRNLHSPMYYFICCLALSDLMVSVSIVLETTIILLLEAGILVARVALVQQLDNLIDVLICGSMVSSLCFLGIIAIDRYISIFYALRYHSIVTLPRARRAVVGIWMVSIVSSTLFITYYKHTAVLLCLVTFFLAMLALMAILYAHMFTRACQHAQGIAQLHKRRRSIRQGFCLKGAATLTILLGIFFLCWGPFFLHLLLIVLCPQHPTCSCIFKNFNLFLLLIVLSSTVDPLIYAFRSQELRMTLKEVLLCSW

Key:
[1] = target: mMC4R (Mus musculus, UniProt P56450); details: for pA2 mMC4R: hek293 cells
[2] = target: mMC3R (Mus musculus, UniProt P33033); details: hek293 cells
[3] = target: mMC1R (Mus musculus, UniProt Q01727); details: antagonist potency

| SMILES | selectivity for the mMC4R over the other receptors [1] | pA2 mMC4R [1] | pA2 mMC3R [2] | selectivity for the mMC1R over the mMC3R, mMC4R, and mMC5R [3] |
| --- | --- | --- | --- | --- |
| CC(=O)N[C@H](Cc1ccc(I)cc1)C(=O)N[C@@H](CCCNC(=N)N)C(=O)N[C@@H](Cc1ccc2ccccc2c1)C(=O)N[C@@H](CCCNC(=N)N)C(N)=O [Peptide 1] | at least 10 fold |  |  |  |
| CC(=O)N[C@H](Cc1ccc(I)cc1)C(=O)N[C@@H](Cc1c[nH]cn1)C(=O)N[C@@H](Cc1ccc2ccccc2c1)C(=O)N[C@@H](CCCNC(=N)N)C(N)=O [Peptide 2, Ac-DPhe(pI)-His-Nal(2’)-Arg-NH2] |  | 7.0±0.2 |  |  |
| CC(=O)N[C@H](Cc1ccc(I)cc1)C(=O)N[C@@H](CCCCN)C(=O)N[C@@H](Cc1ccc2ccccc2c1)C(=O)N[C@@H](CCCNC(=N)N)C(N)=O [Peptide 3, Ac-DPhe(pI)-Lys-Nal(2’)-Arg-NH2] | at least 10 fold | 8.1±0.1 |  |  |
| CC(=O)N[C@H](Cc1ccc(I)cc1)C(=O)N[C@@H](CCCN)C(=O)N[C@@H](Cc1ccc2ccccc2c1)C(=O)N[C@@H](CCCNC(=N)N)C(N)=O [Peptide 4, Ac-DPhe(pI)-Orn-Nal(2’)-Arg-NH2] |  | 7.0±0.2 | <5.5 |  |
| CC(=O)N[C@H](Cc1ccc(I)cc1)C(=O)N[C@@H](CN)C(=O)N[C@@H](Cc1ccc2ccccc2c1)C(=O)N[C@@H](CCCNC(=N)N)C(N)=O [Peptide 6, Ac-DPhe(pI)-Dap-Nal(2’)-Arg-NH2] |  | 5.8±0.2 | <5.5 | at least 10 fold |
| CC(=O)N[C@H](Cc1ccc(I)cc1)C(=O)N[C@H](CCCNC(=N)N)C(=O)N[C@@H](Cc1ccc2ccccc2c1)C(=O)N[C@@H](CCCNC(=N)N)C(N)=O [Peptide 8, Ac-DPhe(pI)-DArg-Nal(2’)-Arg-NH2] |  |  | <5.5 |  |
| CC(=O)N[C@H](Cc1ccc(I)cc1)C(=O)N[C@H](CCCCN)C(=O)N[C@@H](Cc1ccc2ccccc2c1)C(=O)N[C@@H](CCCNC(=N)N)C(N)=O [Peptide 9, Ac-DPhe(pI)-DLys-Nal(2’)-Arg-NH2] |  | <5.5 | <5.5 |  |
| CC(=O)N[C@H](Cc1ccc(I)cc1)C(=O)N[C@@H](CCCNC(N)=O)C(=O)N[C@@H](Cc1ccc2ccccc2c1)C(=O)N[C@@H](CCCNC(=N)N)C(N)=O [Peptide 10, Ac-DPhe(pI)-Cit-Nal(2’)-Arg-NH2] |  | 6.5±0.3 |  |  |
| CC(=O)N[C@H](Cc1ccc(I)cc1)C(=O)N[C@@H](CCC(=O)O)C(=O)N[C@@H](Cc1ccc2ccccc2c1)C(=O)N[C@@H](CCCNC(=N)N)C(N)=O [Peptide 11, Ac-DPhe(pI)-Glu-Nal(2’)-Arg-NH2] |  | <5.5 | <5.5 |  |
| CC(=O)N[C@H](Cc1ccc(I)cc1)C(=O)N[C@@H](CCCNC(=N)N)C(=O)N[C@@H](Cc1ccc2ccccc2c1)C(=O)N[C@@H](Cc1c[nH]cn1)C(N)=O [Peptide 12, Ac-DPhe(pI)-Arg-Nal(2’)-His-NH2] |  | 7.8±0.3 | 7.0±0.1 |  |
| CC(=O)N[C@H](Cc1ccc(I)cc1)C(=O)N[C@@H](CCCNC(=N)N)C(=O)N[C@@H](Cc1ccc2ccccc2c1)C(=O)N[C@@H](CCN)C(N)=O [Peptide 15, Ac-DPhe(pI)-Arg-Nal(2’)-Dab-NH2] | at least 10 fold | 8.8±0.1 | 7.8±0.1 |  |
| CC(=O)N[C@H](Cc1ccc(I)cc1)C(=O)N[C@@H](CCCNC(=N)N)C(=O)N[C@@H](Cc1ccc2ccccc2c1)C(=O)N[C@@H](CN)C(N)=O [Peptide 16, Ac-DPhe(pI)-Arg-Nal(2’)-Dap-NH2] |  | 8.1±0.1 | 7.3±0.4 |  |
| CC(=O)N[C@H](Cc1ccc(I)cc1)C(=O)N[C@@H](CCCNC(=N)N)C(=O)N[C@@H](Cc1ccc2ccccc2c1)C(=O)N[C@@H](CCCCNC(=N)N)C(N)=O [Peptide 17, Ac-DPhe(pI)-Arg-Nal(2’)-hArg-NH2] |  | 8.2±0.2 | 7.7±0.5 |  |
| CC(=O)N[C@H](Cc1ccc(I)cc1)C(=O)N[C@@H](CCCNC(=N)N)C(=O)N[C@@H](Cc1ccc2ccccc2c1)C(=O)N[C@@H](CCCNC(N)=O)C(N)=O [Peptide 20, Ac-DPhe(pI)-Arg-Nal(2’)-Cit-NH2] | at least 10 fold | 8.5±0.2 | 6.8±0.3 |  |
